From patent US20110098180A1, “Herbicide-Resistant Plants, And Polynucleotides And Methods For Providing Same” (United States Department of Agriculture, priority 2002, published 2011)

The chains behind the UniProt entries cited, without tags or fusion partners. Residues count along the entry.
UniProt Q66PY0, 77-580 R304S: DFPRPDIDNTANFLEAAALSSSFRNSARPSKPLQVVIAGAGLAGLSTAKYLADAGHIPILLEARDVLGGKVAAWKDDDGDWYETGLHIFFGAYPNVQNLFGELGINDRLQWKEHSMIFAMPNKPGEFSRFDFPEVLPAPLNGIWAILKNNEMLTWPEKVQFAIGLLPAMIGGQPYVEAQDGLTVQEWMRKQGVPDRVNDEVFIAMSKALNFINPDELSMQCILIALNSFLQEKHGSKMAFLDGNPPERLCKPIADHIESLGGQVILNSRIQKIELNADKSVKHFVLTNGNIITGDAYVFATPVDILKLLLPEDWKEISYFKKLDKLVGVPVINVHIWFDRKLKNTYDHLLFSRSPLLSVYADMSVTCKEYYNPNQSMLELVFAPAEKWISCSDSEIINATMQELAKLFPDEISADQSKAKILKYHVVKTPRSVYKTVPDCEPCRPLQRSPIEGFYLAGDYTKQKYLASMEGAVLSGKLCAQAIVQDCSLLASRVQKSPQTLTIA
UniProt Q66PY0, 77-580 R304T: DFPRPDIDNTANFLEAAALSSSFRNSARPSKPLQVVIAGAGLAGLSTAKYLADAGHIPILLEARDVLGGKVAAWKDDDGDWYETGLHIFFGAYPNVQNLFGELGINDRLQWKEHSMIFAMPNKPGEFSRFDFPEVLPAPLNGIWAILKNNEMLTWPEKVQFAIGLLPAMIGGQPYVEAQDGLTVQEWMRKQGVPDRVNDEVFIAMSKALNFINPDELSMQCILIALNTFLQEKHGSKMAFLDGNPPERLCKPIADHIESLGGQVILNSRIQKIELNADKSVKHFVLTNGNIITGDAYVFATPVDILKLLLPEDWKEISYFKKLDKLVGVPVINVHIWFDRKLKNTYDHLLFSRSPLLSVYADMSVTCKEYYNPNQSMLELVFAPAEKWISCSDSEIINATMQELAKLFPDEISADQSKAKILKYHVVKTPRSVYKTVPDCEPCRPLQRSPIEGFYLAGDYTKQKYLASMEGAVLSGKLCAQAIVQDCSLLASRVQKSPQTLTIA
UniProt Q66PY0, 77-580 R304C: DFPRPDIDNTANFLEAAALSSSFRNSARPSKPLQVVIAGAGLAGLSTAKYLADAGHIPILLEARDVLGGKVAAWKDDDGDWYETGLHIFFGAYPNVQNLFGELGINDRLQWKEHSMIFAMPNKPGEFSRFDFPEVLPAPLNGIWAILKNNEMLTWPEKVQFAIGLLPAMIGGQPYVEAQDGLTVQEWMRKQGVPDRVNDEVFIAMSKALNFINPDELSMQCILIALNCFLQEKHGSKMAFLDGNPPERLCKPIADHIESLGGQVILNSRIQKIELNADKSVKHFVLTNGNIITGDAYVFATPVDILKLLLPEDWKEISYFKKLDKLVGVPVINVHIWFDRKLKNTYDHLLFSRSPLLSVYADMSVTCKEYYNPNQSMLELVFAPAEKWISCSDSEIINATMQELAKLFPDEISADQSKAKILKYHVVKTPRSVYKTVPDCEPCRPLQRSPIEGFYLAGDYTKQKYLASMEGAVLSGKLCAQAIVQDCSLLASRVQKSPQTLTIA
UniProt Q66PY0, 77-580 R304H: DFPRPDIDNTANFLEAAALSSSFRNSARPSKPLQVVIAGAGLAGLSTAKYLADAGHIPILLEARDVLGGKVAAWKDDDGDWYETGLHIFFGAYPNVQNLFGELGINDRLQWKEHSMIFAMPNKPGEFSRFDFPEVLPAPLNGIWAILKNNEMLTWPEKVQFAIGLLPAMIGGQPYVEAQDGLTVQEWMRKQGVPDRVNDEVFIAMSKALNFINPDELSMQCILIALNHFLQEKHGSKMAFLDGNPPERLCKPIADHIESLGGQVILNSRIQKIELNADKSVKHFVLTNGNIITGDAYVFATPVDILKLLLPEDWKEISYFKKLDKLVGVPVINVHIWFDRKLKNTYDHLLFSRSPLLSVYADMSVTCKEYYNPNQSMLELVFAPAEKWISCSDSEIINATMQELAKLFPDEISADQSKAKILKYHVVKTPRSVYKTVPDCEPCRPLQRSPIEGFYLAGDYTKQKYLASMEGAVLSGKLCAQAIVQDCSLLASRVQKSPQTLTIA

How the values were obtained:
Test in all cases: Cross-resistance testing, His-tagged column-purified PDS (Table 2A)
Assay type in all cases: biochemical
[1] = target: hydrilla PDS Arg^304 → Serine, His-tagged (Hydrilla verticillata, UniProt Q66PY0, R304S); conditions: read-out: I50, Serine at 304
Text: (§1) In further cross-resistance testing similar to that described above, an alternative production and purification protocol was used in the preparation of the mutant PDS proteins, and the activity of the proteins was again tested using the same testing protocol. The alternative approach utilized His-tagging and column purification of the mutant PDS protins. The results are shown in. Table 2A below.
(§2) The plasmid pHy4ATG5 was made by cloning the Phytoene Desaturase (pds) gene from Hydrilla verticillata, including 323 by upstream of the beginning of the putative mature protein, into the vector TOPO4 (Invitrogen, Carlsbad, Calif.): The 1-323 by region contained three potential start codons (ATG)(positions 1, 114 and 225 bp) in frame with pds. In order to express pds in bacteria, deletion clones were made for each of the three potential start codons with and without ATG. Only the results for possible origins of translation 1 and 225 by (named ORF and 3ORF) are reported here. pds was PCR amplified and subcloned into TOPO4 using pHy4ATG5 as template and the reverse primer RPDS—1849 (5′[…] 3′). The forward primers used were ORF (5′ […] 3′), ORF-ATG (5′ […] 3′), 3_ORF (5′[…] 3′) and 3_ORF-ATG (5′ […] 3′). The resulting plasmids were named pORF, pORF-ATG (minus ATG codon), p3ORF and p3ORF-ATG. The pds-containing EcoRI-fragments of these plasmids were subcloned into the EcoRI site of pRSETb vector (Invitrogen) for Histidine tagging and bacterial expression. The resulting constructs were pHy4SET, pHy4SET-ATG (minus ATG), p3ORFSET and p3ORFSET-ATG.
(§3) Plasmid p3ORF-ATG was later mutagenized at the amino acid 304 of pds to replace the amino acid Arginine (Arg) by Histidine (His), Threonine (Thr), Serine (Ser), or Cysteine (Cys), using the QuickChange™ Site-Directed Mutagenesis Kit of Stratagene (La Jolla, Calif.). Primers used to replace Arg by His were Hyd-His-For (5′[…] 3′) and Hyd-His-Rev (5′ […] 3′); to replace Arg by Thr we used primers Hyd-Thr-For (5′[…] 3′) and Hyd-Thr-Rev (5′[…] 3′); to replace Arg by Ser we used Hyd-Ser-For (5′[…] 3′) and Hyd-Ser-Rev (5′[…] 3′); and Arg was replaced by Cys using Hyd-Cys-For (5′[…] 3′) and Hyd-Cys-Rev (5′[…] 3′). Resulting plasmids were named: p3ORFHisSet-ATG, p3ORFThrSet-ATG, p3ORFSerSet-ATG and p3ORFCysSet-ATG.
(§4) All pRSET derived constructs were transformed into BL21(DE3)pLysS cells (Invitrogen), induced with IPTG for protein expression, and the His tag overproduced proteins analyzed by Western blot using Anti-HisG antibody (Invitrogen, cat. #R940-25).
(§5) When working with His-tagged PDS proteins expressed as described in Example 4, the purified protein used for testing was prepared as follows. […]

[2] = target: hydrilla PDS Arg^304 → Threonine, His-tagged (Hydrilla verticillata, UniProt Q66PY0, R304T); conditions: read-out: I50, Threonine at 304
Text: as §1, §2, §3, §4, §5

[3] = target: hydrilla PDS Arg^304 → Cysteine, His-tagged (Hydrilla verticillata, UniProt Q66PY0, R304C); conditions: read-out: I50, Cysteine at 304
Text: as §1, §2, §3, §4, §5

[4] = target: hydrilla PDS Arg^304 → Histidine, His-tagged (Hydrilla verticillata, UniProt Q66PY0, R304H); conditions: read-out: I50, Histidine at 304
Text: as §1, §2, §3, §4, §5

Substance: Fluridone
- IC50 [1]: 0.611 mM
- IC50 [2]: 2.37 mM
- IC50 [3]: 0.799 mM
- IC50 [4]: 1.47 mM
